Values quoted from earlier work as cited in patent US8598325B2, “Solid-phase microextraction coatings and methods for their preparation” (priority 2002, dated 2013).

Settings: at 25° C.

For diniconazole, the “Vapour Pressure” value is given as 2.96 mPa.
